# Earlier results in patent US11452718B2 (AVALYN PHARMA INC., priority 2012, dated 2022).
# System: patients carrying the ALK fusion gene
# Details: nausea, vomiting, or diarrhea; cited from earlier work
compound,measurement,value
C[C@@H](Oc1cc(-c2cnn(C3CCNCC3)c2)cnc1N)c1c(Cl)ccc(F)c1Cl [Crizotinib],patients with at least one side effect,Approximately 50%
